# Antibody variant affinities, Ab-14 light chain, assay 1

Antigen: PDVDLGDISGINAS, a 14-residue peptide of the SARS-CoV-2 spike HR2 region.

Ab-14 is the parent antibody, in scFv form: VH, then the linker GGGGSGGGGSGGGGS, then VL. The heavy chain is unchanged in all variants.
VH: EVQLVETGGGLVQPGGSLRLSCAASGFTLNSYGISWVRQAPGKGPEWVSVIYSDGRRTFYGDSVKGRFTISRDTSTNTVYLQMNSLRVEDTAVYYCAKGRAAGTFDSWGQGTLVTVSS
VL: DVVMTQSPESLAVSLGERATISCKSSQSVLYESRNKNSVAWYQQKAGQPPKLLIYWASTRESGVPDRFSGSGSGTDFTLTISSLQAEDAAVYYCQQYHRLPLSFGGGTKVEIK

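Phage display of a naive human antibody library on the peptide gave the parent. In library AAYL50, one, two or three CDR residues were substituted; doubles and triples were drawn at random. The assay is AlphaSeq: two haploid yeast populations carry antibody and antigen on their surface. Pairs that bind mate more often; barcode pairs of the diploids are counted by sequencing. Each replicate has its own calibration line, from reference interactions of the BCL2 family. There are three technical replicates.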

Positions count from residue 1 of the parent VL; V39G puts G in place of V.
Numbers give log10(Kd / nM), so 0 is 1 nM and 3 is 1 µM. Smaller is tighter.
A mean of the replicates is given; it leaves out those without a signal.
An entry "no signal" has no value in the source: the pair was not observed among the diploids in any replicate. This suggests poor binding but is not conclusive.
Background: pairings of library AAYL50 with three empty control strains gave a value in 18% of cases (median 4.19, 5th percentile 2.99). Values in that range, when seen in few replicates, are hard to tell from nonspecific mating.

changes | log10 Kd (nM), mean | seen in
V39G S58K H98I | no signal | 0/3
Y31L S33F L102H | no signal | 0/3
W56L Q96L P101R | 1.27 | 3/3
L30P Y31N N37C | 2.32 | 3/3
Y31D N37H W56P | 3.67 | 3/3
N35C S38D A57M | no signal | 0/3
Y31D N35D | 0.28 | 3/3
S25A L100Q P101N | no signal | 0/3
W56G H98E L102P | 3.80 | 2/3
L30V N35T S62L | 2.49 | 2/3
S26T S38G T59Y | 3.28 | 1/3
L30F H98D L102C | no signal | 0/3
K24A E32I Q96N | no signal | 0/3
N35W V39D S62E | 6.13 | 1/3
S26L S38A A40C | no signal | 0/3
S28N E32S N35M | 1.40 | 3/3
V29C Y31C Q96Y | 4.10 | 2/3
K36M N37R A40T | no signal | 0/3
K24D Y31M S103D | 1.27 | 3/3
S28L L30K S62C | 1.78 | 3/3
S33V T59D S103N | 3.95 | 2/3
N37H V39T Y97V | no signal | 0/3
S33H L100S L102F | 3.73 | 1/3
N35Q V39E Y97I | no signal | 0/3
S38L S58W L102P | 5.47 | 1/3
V29W V39E A57L | 3.63 | 1/3
L30E N37R S38Y | no signal | 0/3
S25Q R60G S103G | 0.76 | 3/3
S28W T59P H98T | 3.48 | 1/3
Q96L Y97F | 2.62 | 3/3
S58R Q95S Q96K | 2.57 | 3/3
Q27T V39G H98R | 4.12 | 1/3
V29K W56M S62K | 0.29 | 3/3
S28T N37E S58F | 3.59 | 1/3
Y31P E32I | no signal | 0/3
V29T Y97H H98F | 3.08 | 2/3
K24E N35R W56Y | 2.53 | 3/3
E32S R60A S62N | 2.89 | 3/3
S26I E32T N37K | 3.91 | 2/3
S33M E61I Q96Y | 2.93 | 3/3
S58W R60F E61T | 4.05 | 1/3
S33G R34T H98Q | 0.84 | 3/3
K24E N37W | 2.14 | 3/3
A57R T59K Q96H | 3.95 | 2/3
S38C A40H S62R | no signal | 0/3
V29P R34S P101F | no signal | 0/3
E61Q Q95E S103V | 2.58 | 3/3
S38E W56C P101N | 2.86 | 1/3
L30K E32L K36F | 1.67 | 3/3
N35A Q96N Y97W | 4.36 | 1/3
S25P H98A R99V | 1.11 | 3/3

The first 4 variants above that were never detected:

changes | log10 Kd (nM), mean | seen in
V39G S58K H98I | no signal | 0/3
Y31L S33F L102H | no signal | 0/3
N35C S38D A57M | no signal | 0/3
S25A L100Q P101N | no signal | 0/3

From the AlphaSeq antibody data of Engelhart et al. 2022 (doi:10.1038/s41597-022-01779-4), copy in the FLAb collection.